Data as given in patent EP2060268A1, “Pharmaceutical compositions for pulmonary or nasal delivery of peptides” (NOVO NORDISK A/S, priority 2007, dated 2009).

Assay: Pharmacokinetics after intra-tracheal dry powder delivery to anaesthetised pigs
Type: in vivo
Settings: pig, inhaled or intranasal, pramlintide/insulin aspart powder delivered intra-tracheally, plasma, read-out: Absolute bioavailability
Description: For pulmonary delivery the PennCentury™ DP-4 dry powder insufflator (Penn-Century Inc) modified for pigs was used in combination with the PennCentury™ adjustable air pump, model AP-1 (Penn-Century Inc). The powder is weighed into the sample chamber of the device and manually emitted from the device by using the AP-1 adjustable pump.
The pigs were fasted for approximately 18 h before the experiment. Anaesthesia was induced by injecting Domitor IV (1 mg/mL, 0.4 mL/pig), followed by slow IV infusion of Propofol (10 mg/ml) until the sufficient depth of anaesthesia was obtained, approximately 10-15 mL/pig in total. Atropin (1 mg/ml, 0.5 mL/pig) was injected i.m. to stabilize cardiac parameters and to decrease bronchial secretions. After anaesthesia (and) the pigs were intubated with an endotracheal tube size 8.0 mm. Via an L-piece and the endotraceal tube the pigs were connected to a respirator, with respiration frequency set to 10/min and tidal volume to 300 mL/breath to mimic deep inhalations in humans. […]
Insulin aspart was analyzed using an in-house LOCI sandwich immunoassay with two different antibodies. […] Pramlintide was analyzed using a commercially available human amylin ELISA kit modified for porcine samples (Linco Research, cat. no. EZHA-52K). […]

CC[C@H](C)[C@H](NC(=O)[C@@H]1CCCN1C(=O)CNC(=O)[C@H](Cc1ccccc1)NC(=O)[C@H](CC(N)=O)NC(=O)[C@H](CC(N)=O)NC(=O)[C@H](CO)NC(=O)[C@H](CO)NC(=O)[C@H](Cc1c[nH]cn1)NC(=O)[C@@H](NC(=O)[C@H](CC(C)C)NC(=O)[C@H](Cc1ccccc1)NC(=O)[C@H](CC(N)=O)NC(=O)[C@H](C)NC(=O)[C@H](CC(C)C)NC(=O)[C@H](CCCNC(=N)N)NC(=O)[C@H](CCC(N)=O)NC(=O)[C@@H](NC(=O)[C@H](C)NC(=O)[C@@H]1CSSC[C@H](NC(=O)[C@@H](N)CCCCN)C(=O)N[C@@H](CC(N)=O)C(=O)N[C@@H]([C@@H](C)O)C(=O)N[C@@H](C)C(=O)N[C@@H]([C@@H](C)O)C(=O)N1)[C@@H](C)O)C(C)C)C(=O)N[C@@H](CC(C)C)C(=O)N1CCC[C@H]1C(=O)N1CCC[C@H]1C(=O)N[C@H](C(=O)N[C@@H](CC(N)=O)C(=O)N[C@H](C(=O)NCC(=O)N[C@@H](CO)C(=O)N[C@@H](CC(N)=O)C(=O)N[C@H](C(=O)N[C@@H](Cc1ccc(O)cc1)C(N)=O)[C@@H](C)O)C(C)C)[C@@H](C)O [Symlin, ^25,28,29Pro-h-amylin]
bioavailability: 5.1 ± 3.1%
